The numbers were not newly measured in article PMC12251305 (Molecules, 2025), which cites them from elsewhere.

In data set [1] the test system is DOP. Particulars: read-out: DOP Ki; Figure 1; ref [29]; cited from earlier work.
Data set [2] concerns MOP. Particulars: read-out: MOP Ki; Figure 1; ref [29]; cited from earlier work.
The subject of data set [3] is KOP. Particulars: read-out: KOP Ki; Figure 1; ref [29]; cited from earlier work.
Data set [4] concerns C57BL/6J mice. Particulars: mouse 48 °C warm water tail withdrawal test; ref [29]; cited from earlier work.

Molecules are shown by their SMILES. pKi: −log10 of the molar value.

Turning to `N=C(N)NCCNC(=O)C1(Nc2ccccc2)CCN(Cc2ccccc2)CC1` [compound 2], the figures for the pKi in data set [1], in data set [2] and in data set [3] were 5.58, below 5.30 and 5.83, respectively. For the same molecule, the “prevention of NPFF-induced hyperalgesia” value in data set [4] is “prevents NPFF-induced hyperalgesia”.

Usually pKi stands for −log10 of the Ki, conventionally taken in molar units.
